## Yeast mating assay B: variants of the scFv Ab-14

Binding partner: SARS-CoV-2 spike HR2 peptide, sequence PDVDLGDISGINAS.

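Phage display of a naive human antibody library on the peptide gave the parent. These sequences belong to a second round, designed from the earlier measurements on random variants of the parent. Several design methods are mixed in this list. Affinity was read by AlphaSeq, a pooled yeast mating assay with surface-displayed partners. Pairs that bind mate more often; barcode pairs of the diploids are counted by sequencing. The ratio of observed to expected reads was calibrated, replicate by replicate, on BCL2-family standards whose Kd was known from biolayer interferometry. Mating was done six times.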

Ab-14 is the parent antibody, in scFv form: VH, then the linker GGGGSGGGGSGGGGS, then VL. The heavy chain is unchanged in all variants.
VH: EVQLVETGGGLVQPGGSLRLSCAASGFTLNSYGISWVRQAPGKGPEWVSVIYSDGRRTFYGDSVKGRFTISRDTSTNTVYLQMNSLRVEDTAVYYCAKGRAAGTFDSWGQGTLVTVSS
VL: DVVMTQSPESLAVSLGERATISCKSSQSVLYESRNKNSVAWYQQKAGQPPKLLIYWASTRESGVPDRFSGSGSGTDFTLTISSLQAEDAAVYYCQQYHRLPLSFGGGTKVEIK

The parent's light chain CDRs are KSSQSVLYESRNKNSVA, WASTRES, QQYHRLPLS; each variant's own CDRs replace them letter for letter. This list holds designs with more than six substitutions. Values are apparent Kd, the geometric mean of the replicates that gave a signal; lower means stronger binding. "nd" marks a missing value. The strain was present, yet no cells mated with the target were sequenced in any replicate, which points to weak or no binding. The list is sorted by this average, lowest first, undetected variants last.

- NISQMFFMETKNVNNVA / QTSTREQ / QDYHRLPLS = 170 pM (6 of 6 replicates; controls 0 of 18)
- SLPNARPDGSLQKNNVA / EGTCRSD / QQYMRLPLF = 860 pM (6 of 6 replicates; controls 0 of 18)
- KQEISVLQESRNQNSVA / NASTREV / QQYHRLPLS = 1.0 nM (6 of 6 replicates; controls 1 of 18)
- HLSQSGLYEMRNKNSVA / QASQRLQ / QQYHRLPLS = 1.4 nM (6 of 6 replicates; controls 1 of 18)
- HISPSFMVESKLKNSVA / QTETRVS / QQYDRLPLS = 1.4 nM (6 of 6 replicates; controls 2 of 18)
- KLQFSSLMLQRNKNSVA / SASTRES / QQYHRLPLS = 1.8 nM (6 of 6 replicates; controls 2 of 18)
- ILSQMLLTAGNKYNSVA / QANYRES / QQYHRLPLS = 1.9 nM (6 of 6 replicates; controls 0 of 18)
- MVNGIMDHLSKNTNNVA / ETTTRNS / QQYDRLPLA = 2.1 nM (6 of 6 replicates; controls 0 of 18)
- KINERMRMGENQQHSIA / NAATIVK / QQYHNLPLG = 2.6 nM (6 of 6 replicates; controls 1 of 18)
- RMNKFMSGATEAKNSMA / GAEHRAQ / QSYHRLPLS = 3.1 nM (6 of 6 replicates; controls 1 of 18)
- KLSQITGHMSVSKNNVA / EMVTRVN / QQYNRLPLS = 3.3 nM (6 of 6 replicates; controls 0 of 18)
- TISQMTSLFSQTINNVA / EVSTREN / QQYDRLPLA = 3.4 nM (6 of 6 replicates; controls 1 of 18)
- KLQQGMDYESRNDNSVA / HASMRES / QQYHRLPLF = 3.5 nM (6 of 6 replicates; controls 0 of 18)
- KLASVTGTEKVHGNNVA / EMETRER / QQYNRLPLA = 3.6 nM (6 of 6 replicates; controls 0 of 18)
- QMTENDHGHQAGGGSIA / DATETME / QQYMHLPLS = 4.3 nM (6 of 6 replicates; controls 0 of 18)
- TISQVMNTLTREGNNVA / DLQEREK / QQYFRLPLS = 5.8 nM (6 of 6 replicates; controls 2 of 18)
- MAYGGDMMQSVARNSVA / NAETRAE / QDYHRLPLS = 7.1 nM (6 of 6 replicates; controls 4 of 18)
- KLLQNVMTEYRDRNNVA / HMDMRED / QQYWRLPLS = 13 nM (6 of 6 replicates; controls 3 of 18)
- KLSQSMEYQSRNKNNVA / NASQREQ / QSYHRLPLS = 14 nM (6 of 6 replicates; controls 0 of 18)
- TMLHELIQDDPMYNNVA / DQSLKTA / QQYYRLPLS = 15 nM (3 of 6 replicates; controls 2 of 18)
- TIGQMFNGESRIRNSVA / QASTREQ / QSYDRLPLA = 17 nM (6 of 6 replicates; controls 3 of 18)
- GIDPYEAMAGKNKESIA / EAAVTLT / QQYARLPLS = 25 nM (1 of 6 replicates; controls 0 of 18)
- NIVGRVEDKQTENNAIA / DAHCRAG / QQYSRLPIS = 32 nM (6 of 6 replicates; controls 0 of 18)
- IISGSMLMESRSKNSVA / NAETREY / QHYDRLPLS = 32 nM (6 of 6 replicates; controls 1 of 18)
- ILSQSVMMGSHLKNSVA / QASTRFS / QQYHRLPLM = 36 nM (6 of 6 replicates; controls 0 of 18)
- KLRQVTGYESYNRNSVA / QTSTRAS / QDYHRLPLS = 38 nM (6 of 6 replicates; controls 4 of 18)
- FISLCQNSYEDANNSIA / DRNERAM / QQYGRLPLV = 38 nM (4 of 6 replicates; controls 0 of 18)
- KLREVQHVETKSKNNVA / DNDTREY / QDYYRLPLS = 64 nM (4 of 6 replicates; controls 2 of 18)
- HMSMLTMMGMRHRNSVA / QMTTREN / QQYDRLPLM = 170 nM (3 of 6 replicates; controls 1 of 18)
- KLYEMSYELSGKTHSVA / DNSTRGD / QQYFRLPLD = 580 nM (2 of 6 replicates; controls 0 of 18)
- RIDAYPPMQGNNIDSIA / ENAITLH / QQYANLPLS = 650 nM (2 of 6 replicates; controls 1 of 18)
- HVSESVFAQSKVKNSVA / ENSTRES / QQYDRLPLS = 670 nM (4 of 6 replicates; controls 1 of 18)
- KMNMAFQQDLMDEYSVA / DHMLAVT / QQYGRLPLS = 860 nM (4 of 6 replicates; controls 0 of 18)
- KVSDPMVEWYANQSAVA / EHAEAQH / QQYDRLPLS = 1.5 µM (1 of 6 replicates; controls 0 of 18)
- HLSAMWGLESVKHNNVA / ENTTREQ / QQYDRLPLS = 1.7 µM (4 of 6 replicates; controls 0 of 18)
- SFDLTKSGMENEQYSIA / ERNELMT / QDYHRLPLA = nd (0 of 6 replicates; controls 1 of 18)
- KMEWYSQDNRLTISAIA / EASTIYQ / QQYGRLPLS = nd (0 of 6 replicates; controls 0 of 18)

Excerpt, the first 2 entries:

* NISQMFFMETKNVNNVA / QTSTREQ / QDYHRLPLS = 170 pM (6 of 6 replicates; controls 0 of 18)
* SLPNARPDGSLQKNNVA / EGTCRSD / QQYMRLPLF = 860 pM (6 of 6 replicates; controls 0 of 18)

Nonspecific signal, from three strains lacking the peptide, appeared in 4% of pairings of all light chain designs, centred on 430 nM (5% of these signals below 38 nM); values are not corrected for it. Also given: how often the same scFv was detected with the empty control strains. The range of this assay differs from that of the first round, and the authors advise against merging the two. The authors averaged sequences with at least three values out of six and counted those with two or fewer as poor binders. The parent sequence was in this pool as ten entries: three were never detected, three once, and four in most replicates, with averages from 2.2 nM to 240 nM.

The measurements come from Li et al. 2023 (doi:10.1038/s41467-023-39022-2) through the FLAb antibody collection.